Test results: publication PMC7041945, “Misfolded proteins bind and activate death receptor 5 to trigger apoptosis during unresolved endoplasmic reticulum stress” (eLife, 2020)

By UniProt entry, the sequences of proteins in these tests, tags left out. Residues count along the entry.
UniProt O14763, 72-213: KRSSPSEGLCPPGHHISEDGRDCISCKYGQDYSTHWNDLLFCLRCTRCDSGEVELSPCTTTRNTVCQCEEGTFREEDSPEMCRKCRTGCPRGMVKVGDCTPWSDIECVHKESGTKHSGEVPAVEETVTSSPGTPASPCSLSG

Target: T1, DR5L ECD (Homo sapiens, UniProt O14763)
T1 construct: Gp67 (glycoprotein) signal peptide (N); made in house; host or cells: SF21 insect cells (baculovirus, Bac-to-Bac)
Assay: Size exclusion chromatography of DR5 ECD and peptide complex
Assay type: biochemical
Conditions: 25 μM DR5L ECD; TRAIL 25 uM
Method: The specified concentration of protein and peptide were incubated overnight at 4°C. The following day, 200 ul of each sample was loaded onto a SuperDex200 10/300 GL column equilibrated with 30 mM HEPES pH 7.2, 150 mM NaCl at a flow rate of 0.5 ml/min. Fractions were collected in 1 ml aliquots.
For subsequent analysis of each fraction by SDS-PAGE, 1 ml fractions were concentrated to 50 μl using a 3 kDa MW cutoff and loaded onto a gel. The fluorescein-labeled peptide was visualized using the fluorescence detection mode on a Typhoon 9400 Variable Mode Imager (GE Healthcare). Protein was visualized by staining with Coomassie.

TRAIL: canonical extracellular ligand of DR5 (Apo2L/TRAIL)
co-elution of TRAIL with DR5 ECD by size exclusion: both proteins co-eluted near the void volume
